Results published in PMC12526004, “Tiliroside Suppresses Uric Acid Production in Hepatocytes and Attenuates Purine-Induced Hyperuricemia in Male ICR Mice” (Molecules, 2025).

Protein sequences, listed by entry. Tags and fused reporters are not part of them.
UniProt P80457, whole entry: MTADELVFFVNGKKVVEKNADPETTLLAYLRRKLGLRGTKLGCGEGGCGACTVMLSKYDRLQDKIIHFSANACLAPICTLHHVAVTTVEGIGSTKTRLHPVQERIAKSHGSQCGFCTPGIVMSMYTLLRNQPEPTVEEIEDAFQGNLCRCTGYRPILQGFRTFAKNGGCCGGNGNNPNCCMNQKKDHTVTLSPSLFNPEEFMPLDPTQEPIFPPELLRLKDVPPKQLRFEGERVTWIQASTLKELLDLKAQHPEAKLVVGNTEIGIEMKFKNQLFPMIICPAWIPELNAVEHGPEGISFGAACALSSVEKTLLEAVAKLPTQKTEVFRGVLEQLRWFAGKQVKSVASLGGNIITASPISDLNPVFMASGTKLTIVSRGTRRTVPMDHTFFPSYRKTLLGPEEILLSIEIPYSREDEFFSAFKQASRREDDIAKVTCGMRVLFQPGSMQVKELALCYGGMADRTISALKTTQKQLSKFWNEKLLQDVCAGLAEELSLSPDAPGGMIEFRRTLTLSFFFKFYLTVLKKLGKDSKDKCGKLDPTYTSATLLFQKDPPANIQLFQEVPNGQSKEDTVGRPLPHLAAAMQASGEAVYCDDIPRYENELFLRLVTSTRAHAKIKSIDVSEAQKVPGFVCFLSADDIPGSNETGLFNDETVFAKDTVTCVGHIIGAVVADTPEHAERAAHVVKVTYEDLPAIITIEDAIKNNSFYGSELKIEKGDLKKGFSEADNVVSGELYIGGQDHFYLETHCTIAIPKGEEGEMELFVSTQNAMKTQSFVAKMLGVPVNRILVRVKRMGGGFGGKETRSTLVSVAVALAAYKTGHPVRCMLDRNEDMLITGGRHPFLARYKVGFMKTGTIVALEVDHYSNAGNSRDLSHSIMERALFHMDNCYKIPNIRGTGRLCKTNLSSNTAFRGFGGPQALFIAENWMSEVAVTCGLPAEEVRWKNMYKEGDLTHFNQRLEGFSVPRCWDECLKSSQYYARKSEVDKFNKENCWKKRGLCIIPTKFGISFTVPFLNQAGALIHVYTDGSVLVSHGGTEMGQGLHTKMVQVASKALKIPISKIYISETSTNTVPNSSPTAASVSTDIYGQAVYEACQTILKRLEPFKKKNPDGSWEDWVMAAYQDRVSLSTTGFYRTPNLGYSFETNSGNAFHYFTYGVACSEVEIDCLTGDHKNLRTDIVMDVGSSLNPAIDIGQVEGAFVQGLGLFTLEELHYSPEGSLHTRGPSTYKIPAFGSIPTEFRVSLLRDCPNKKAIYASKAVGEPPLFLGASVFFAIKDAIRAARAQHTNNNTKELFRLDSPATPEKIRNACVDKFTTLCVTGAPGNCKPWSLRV

Target: xanthine oxidase (bovine milk-derived) (Bos taurus, UniProt P80457)
Assay: XO inhibition assay in vitro (UV absorbance at 295 nm)
Format: biochemical
Settings: xanthine substrate, 37 °C, mean of three independent experiments, read-out: IC50, direct XO inhibitory activity

O=c1c(O)c(-c2ccc(O)cc2)oc2cc(O)cc(O)c12 [Kaempferol, kaempferol]
IC50: 3.9 µM
